# Results as given in PubChem BioAssay AID1381 (University of Pittsburgh Molecular Library Screening Center, 2008).
# This is a selection; strong and weak results do not stand in their true shares. Calls of active or inactive are those of the source.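 The calls were made as follows: active = plate z-score of nuclear minus cytoplasmic receptor signal below a set negative limit, without overly bright fluorescence or cell loss (cut at about -3.5 in these data, passing the limit was not always enough); inactive = the rest, inconclusive results apart.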
# Assay: inhibitors of GR-EGFP nuclear translocation, primary screen, dynein cargo transport inhibitor project, imaging, high-content, 3617.4 mouse cells (AID 1381)
# Conditions: active compounds read low, stimulated with dexamethasone, 1 µM; at 20 µM unless noted
row,Compound,z-score
1,Cc1ccc(OCC(C)C)c(CN(CCCl)CCCl)c1,inactive: -2.69
2,CCOc1ccc(C)cc1CN(CCCl)CCCl,inactive: -1.48
3,COc1ccc(NC2CCN(CCc3ccccc3)CC2)c(OC)c1,inactive: -0.404
4,O=C(NCC1(N2CCOCC2)CCCCC1)c1cc2ccccc2o1,inactive: -0.302 [at 50 µM]
5,N#CC1(Nc2ccccc2)CCN(Cc2ccccc2)CC1,inactive: 1.25
6,O=C(OC1CN2CCC1CC2)C1c2ccccc2Oc2ccccc21 (centres undefined),inactive: 0.982
7,CCOC(=O)N1CCC(Nc2ccc(OC)cc2)CC1,inactive: -0.19
8,COc1ccc(C(=O)NCC2(N3CCCCC3)CCCCC2)c(OC)c1OC,inactive: 0.415
9,CN1CCC(Nc2cccc(F)c2)CC1,inactive: 1.55
10,CC(C)c1ccc(NC2CCN(C(=O)OC(C)(C)C)CC2)cc1,inactive: -0.341
11,COc1ccc(CN(CCCl)CCCl)cc1Cl,inactive: -0.968
12,CN(C)c1cccc(C(=O)NCC2(N3CCCCC3)CCCCC2)c1,inactive: 0.702
13,O=C(NCC1(N2CCOCC2)CCCCC1)c1cc(=O)[nH]c2ccccc12,inactive: 0.371 [at 50 µM]
14,COc1ccc(NC2CCN(C(=O)OC(C)(C)C)CC2)cc1,inactive: 2.57
15,CN1CCN(CCOC(=O)C(O)(c2ccccc2)c2ccccc2)CC1,inactive: 0.326
16,N#CC1(Nc2ccccc2)CCN(CCc2ccccc2)CC1,inactive: -0.149
17,O=C(NCC1(N2CCCCC2)CCCCC1)c1cccc([N+](=O)[O-])c1,inactive: 0.588
18,c1ccc(CN2CCC(Nc3ccccc3)CC2)cc1,inactive: -0.375 [at 50 µM]
19,N#Cc1ccc(C(=O)NCC2(N3CCCCC3)CCCCC2)cc1,inactive: -0.141
20,N/C(=N\O)c1c(N)no[n+]1[O-],inactive: -0.122
21,O=C(OC1CN2CCC1CC2)C1c2ccccc2C=Cc2ccccc21 (centres undefined),inactive: 0.32
22,COc1ccc(C(=O)NCC2(N3CCOCC3)CCCCC2)cc1OC,inactive: -0.931
23,COc1cc(OC)cc(C(=O)NCC2(N3CCOCC3)CCCCC2)c1,inactive: -1.39
24,CCC(CO)(C(=O)OC1CN2CCC1CC2)c1ccccc1 (centres undefined),inactive: 0.899
25,CCCOc1ccc(C)cc1CN(CCCl)CCCl,inactive: -2.12
26,CCOc1ncccc1C(=O)NCC1(N2CCOCC2)CCCCC1,inactive: 0.559
27,CC(C)(C)OC(=O)N1CCC(Nc2ccccc2)CC1,inactive: -0.0954
28,CCN1CCC(Nc2cccc(F)c2)CC1,inactive: 0.0464
29,CN(C)c1ccc(C(=O)NCC2(N3CCCCC3)CCCCC2)cc1,inactive: -0.91
